We go through 6 compounds from US20030148264A1, “Phage displayed PDZ domain ligands” (GENENTECH, INC., priority 2001, published 2003).

In one experiment the target is T1, MAGI 3 PDZ2 (Homo sapiens, UniProt Q5TCQ9).
T1 sequence (Q5TCQ9 584-707 isoform Q5TCQ9-2): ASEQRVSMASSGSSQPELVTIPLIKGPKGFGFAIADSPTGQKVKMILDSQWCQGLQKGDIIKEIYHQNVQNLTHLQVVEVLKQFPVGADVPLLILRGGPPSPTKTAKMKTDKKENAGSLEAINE
The experiment is described as follows: Competition ELISA, peptide blocking PDZ domain binding to immobilized peptide. Also on record: made in house; host or cells: E. coli. The conditions noted are these: MAGI 3 PDZ2; concentration of peptide that blocked 50% of PDZ domain binding to immobilized peptide in an ELISA; read-out: IC50 (μM) PDZ2. From the text:
Many methods are known and can be used to identify the binding affinities of PDZ domain binding ligands (e.g. peptides, proteins, small mollecules, etc.); for example, binding affinities can be determined as IC50 values using competition ELISAs. The IC50 value is defined as the concentration of ligand which blocks 50% of PDZ domain binding to a ligand. For example, in solid phase assays, assay plates may be prepared by coating microwell plates (preferably treated to efficiently absorb protein) with neutravidin, avidin or streptavidin. Non-specific binding sites are then blocked through addition of a solution of bovine serum albumin (BSA) or other proteins (for example, nonfat milk) and then washed, preferably with a buffer containing a detergent, such as Tween-20. A biotinylated known PDZ-domain ligand (for example, the phage peptides or cognate protein as fusions with GST or other such molecule to facilitate purification and detection) is prepared and bound to the plate. Serial delutions of the ligand to be tested with a PDZ domain polypeptide arc prepared and contacted with the bound ligand. The plate coated with the immobilized ligandis washed before adding each binding reaction to the wells and briefly incubated. After further washing, the binding reactions are detected, often with an antibody recognizing the non-PDZ fusion partner and a labeled (such as horseradish peroxidase (HRP), alkaline phosphatase (AP), or a fluorescent tag such as fluorescein) secondary antibody recognizing the primary antibody. The plates are then developed with the appropriate substrate (depending on the label) and the signal quantified, such as using a spectrophotometric plate reader. The absorption signal may be fit to a binding curve using a least squares fit. Thus the ability of the various ligands to inhibit PDZ domain from binding a known PDZ-domain ligand can be measured.
Prokaryotic: The ERBIN PDZ domain (aa. 1217-1371 of SEQ ID NO:201) or MAGI-3 PDZ 2 (aa. 584-707 of SEQ ID NO:200) were cloned into the EcoR 1/Not 1 or BamH 1/Not 1 sites of pGEX 6P-1 and pGEX 4T-3 E. coli expression vectors (Pharmacia) respectively. Expression and affinity purification of E coli expressed GST-proteins was performed as recommended by the manufacturer (Pharmacia).
Peptides corresponding to the selected sequences were synthesized and assayed for binding (Table 2). […] The data also confirmed that the minimal tetrapeptide selectants from the PDZ2 sort bind PDZ2 with high affinity. […] It appears that this large difference in binding affinity is attributable to the residue at P(−1), which is a Trp in the selected peptide as opposed to a Lys in PTEN/MMAC (compare HTQITWV with HTQITKV (SEQ ID NO:220), Table 2; The IC50 values are the concentrations of peptide that blocked 50% of PDZ domain binding to immobilized peptide in an ELISA).
Background: ELISA stands for enzyme-linked immunosorbent assay.
As a reminder, the IC50 is the point on the concentration scale where inhibition reaches its midpoint. With `CC(C)[C@H](NC(=O)[C@H](Cc1c[nH]c2ccccc12)NC(=O)[C@H](CO)NC(=O)[C@H](C)N)C(=O)O` [ASWV], the IC50 was determined as 35 µM. Still for that read-out and setting: in the case of `CC(C)[C@H](NC(=O)[C@H](Cc1c[nH]c2ccccc12)NC(=O)[C@H](C)NC(=O)[C@@H](N)CS)C(=O)O` [CAWV] it was 7.3 µM. On the same count and under the same terms, then `CC(C)[C@H](NC(=O)[C@H](C)NC(=O)[C@H](CO)NC(=O)[C@@H](N)CS)C(=O)O` [CSAV], with 200 µM; and `C[C@H](NC(=O)[C@H](Cc1c[nH]c2ccccc12)NC(=O)[C@H](CO)NC(=O)[C@@H](N)CS)C(=O)O` [CSWA], with 400 µM. Still for that read-out and setting: in the case of `CC(C)[C@H](NC(=O)[C@H](Cc1c[nH]c2ccccc12)NC(=O)[C@H](CO)NC(=O)[C@@H](N)CS)C(=O)O` [CSWV] it was 1.4 µM; in that of `CC(C)[C@H](N)C(=O)N[C@H](C(=O)N[C@@H](Cc1c[nH]c2ccccc12)C(=O)N[C@H](C(=O)O)C(C)C)[C@@H](C)O` [VTWV], 4 µM.

The same experiment, now with this note: MAGI 3 PDZ2 domain; read-out: IC50.
`CC(C)[C@H](NC(=O)[C@H](Cc1c[nH]c2ccccc12)NC(=O)[C@H](CO)NC(=O)[C@@H](N)CS)C(=O)O` [CSWV]: the IC50 worked out at 1 µM.
